For orientation: Cmax means the maximum level reached in the sampled fluid or tissue. What is called Tmax is the time from dosing to the highest level.

By UniProt entry, the sequences of proteins in these tests, tags left out. Residues count along the entry.
UniProt Q9UM73, 19-1620 L1196M/G1202R limits assumed: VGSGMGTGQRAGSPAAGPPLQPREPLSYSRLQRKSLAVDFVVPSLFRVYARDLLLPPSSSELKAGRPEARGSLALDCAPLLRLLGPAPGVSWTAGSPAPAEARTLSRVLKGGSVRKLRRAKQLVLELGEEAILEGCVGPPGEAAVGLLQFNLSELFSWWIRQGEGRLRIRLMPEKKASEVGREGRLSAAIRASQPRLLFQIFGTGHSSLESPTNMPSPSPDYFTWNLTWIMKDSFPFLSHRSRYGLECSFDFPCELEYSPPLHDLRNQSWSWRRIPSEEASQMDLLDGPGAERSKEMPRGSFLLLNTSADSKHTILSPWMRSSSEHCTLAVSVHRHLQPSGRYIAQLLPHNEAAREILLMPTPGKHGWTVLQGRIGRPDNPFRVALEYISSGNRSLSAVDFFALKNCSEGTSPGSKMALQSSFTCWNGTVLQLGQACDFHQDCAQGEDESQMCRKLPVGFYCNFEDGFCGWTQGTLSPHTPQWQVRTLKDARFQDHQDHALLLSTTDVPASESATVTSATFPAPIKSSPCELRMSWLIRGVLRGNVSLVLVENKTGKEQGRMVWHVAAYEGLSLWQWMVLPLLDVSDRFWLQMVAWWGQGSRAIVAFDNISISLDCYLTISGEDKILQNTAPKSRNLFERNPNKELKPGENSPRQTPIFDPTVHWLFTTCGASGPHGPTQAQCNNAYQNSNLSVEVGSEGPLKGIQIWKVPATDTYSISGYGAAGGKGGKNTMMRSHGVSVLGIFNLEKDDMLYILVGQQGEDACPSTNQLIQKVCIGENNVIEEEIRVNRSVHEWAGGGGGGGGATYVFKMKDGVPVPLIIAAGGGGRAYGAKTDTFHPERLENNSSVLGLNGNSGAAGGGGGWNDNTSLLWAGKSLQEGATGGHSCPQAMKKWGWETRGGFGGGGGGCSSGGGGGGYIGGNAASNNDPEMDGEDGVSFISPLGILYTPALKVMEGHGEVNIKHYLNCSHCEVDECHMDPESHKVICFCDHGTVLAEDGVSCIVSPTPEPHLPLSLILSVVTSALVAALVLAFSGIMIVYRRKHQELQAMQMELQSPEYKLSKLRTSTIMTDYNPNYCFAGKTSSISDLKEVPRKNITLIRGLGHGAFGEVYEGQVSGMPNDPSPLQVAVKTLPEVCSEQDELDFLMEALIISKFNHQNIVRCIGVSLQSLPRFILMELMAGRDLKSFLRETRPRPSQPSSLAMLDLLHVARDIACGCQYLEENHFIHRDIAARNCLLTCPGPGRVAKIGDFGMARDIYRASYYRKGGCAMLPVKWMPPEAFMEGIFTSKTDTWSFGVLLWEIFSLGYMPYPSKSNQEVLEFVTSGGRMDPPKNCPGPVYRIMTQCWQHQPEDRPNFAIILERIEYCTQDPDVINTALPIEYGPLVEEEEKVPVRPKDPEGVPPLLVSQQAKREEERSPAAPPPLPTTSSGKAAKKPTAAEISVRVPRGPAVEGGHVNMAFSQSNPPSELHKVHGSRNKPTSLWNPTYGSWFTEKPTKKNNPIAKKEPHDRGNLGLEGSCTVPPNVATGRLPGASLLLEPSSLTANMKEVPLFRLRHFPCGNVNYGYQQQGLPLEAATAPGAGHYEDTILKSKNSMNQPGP
UniProt Q9UM73, 19-1620 I1171N/D1203N limits assumed: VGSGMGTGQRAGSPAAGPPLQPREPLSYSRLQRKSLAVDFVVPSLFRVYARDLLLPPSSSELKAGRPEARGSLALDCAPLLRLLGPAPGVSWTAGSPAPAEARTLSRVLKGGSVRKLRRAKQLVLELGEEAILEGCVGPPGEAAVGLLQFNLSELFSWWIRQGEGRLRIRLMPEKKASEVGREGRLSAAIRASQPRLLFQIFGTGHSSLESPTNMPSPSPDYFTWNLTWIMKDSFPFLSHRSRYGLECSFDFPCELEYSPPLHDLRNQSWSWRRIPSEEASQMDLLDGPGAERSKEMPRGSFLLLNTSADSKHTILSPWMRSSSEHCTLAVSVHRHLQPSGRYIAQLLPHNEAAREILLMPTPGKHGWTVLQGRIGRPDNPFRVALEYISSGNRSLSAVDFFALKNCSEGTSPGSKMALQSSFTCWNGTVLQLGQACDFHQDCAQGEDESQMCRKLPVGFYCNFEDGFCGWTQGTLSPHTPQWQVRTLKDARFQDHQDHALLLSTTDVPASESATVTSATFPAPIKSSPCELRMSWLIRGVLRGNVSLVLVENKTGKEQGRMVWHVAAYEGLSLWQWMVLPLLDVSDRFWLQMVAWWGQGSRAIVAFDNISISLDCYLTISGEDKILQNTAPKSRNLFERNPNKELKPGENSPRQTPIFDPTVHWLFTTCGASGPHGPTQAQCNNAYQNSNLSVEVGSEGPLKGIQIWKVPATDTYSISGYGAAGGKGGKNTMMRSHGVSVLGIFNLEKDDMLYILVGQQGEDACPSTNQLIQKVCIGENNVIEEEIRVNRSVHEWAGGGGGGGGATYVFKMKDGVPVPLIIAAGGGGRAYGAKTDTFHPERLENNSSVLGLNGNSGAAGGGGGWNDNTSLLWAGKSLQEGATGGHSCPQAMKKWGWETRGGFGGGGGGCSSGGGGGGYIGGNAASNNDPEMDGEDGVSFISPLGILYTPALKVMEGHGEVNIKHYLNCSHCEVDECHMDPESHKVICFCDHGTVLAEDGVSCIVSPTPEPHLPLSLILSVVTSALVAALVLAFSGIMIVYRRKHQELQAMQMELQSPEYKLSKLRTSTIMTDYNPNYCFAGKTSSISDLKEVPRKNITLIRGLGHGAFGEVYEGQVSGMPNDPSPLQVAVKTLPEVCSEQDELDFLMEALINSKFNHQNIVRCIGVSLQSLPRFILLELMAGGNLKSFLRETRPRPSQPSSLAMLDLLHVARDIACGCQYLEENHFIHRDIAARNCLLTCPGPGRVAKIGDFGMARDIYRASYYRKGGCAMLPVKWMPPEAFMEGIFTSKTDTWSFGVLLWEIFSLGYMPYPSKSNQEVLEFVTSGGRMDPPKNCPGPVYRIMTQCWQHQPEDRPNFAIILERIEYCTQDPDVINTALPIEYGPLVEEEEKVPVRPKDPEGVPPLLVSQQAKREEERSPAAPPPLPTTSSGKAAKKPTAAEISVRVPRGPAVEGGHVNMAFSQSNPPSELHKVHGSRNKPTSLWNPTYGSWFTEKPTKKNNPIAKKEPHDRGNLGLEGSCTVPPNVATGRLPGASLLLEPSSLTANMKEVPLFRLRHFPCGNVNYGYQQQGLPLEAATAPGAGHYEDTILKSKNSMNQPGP

The record followed here is patent EP4831180A1, “NOVEL KINASE INHIBITOR” (dated 2026).

Data set [1] deals with Baf3 EML4-ALK V1^I1171N/D1203N cells. The conditions noted are these: read-out: BaF3 EML4-ALK^I1171N/D1203N IC50; 3 days incubation, Cell-Titer Glo.
A short description of data set [2]: Pharmacokinetics in rats after single oral gavage dose. Conditions: male SD rats, single oral gavage 5 mg/kg, plasma.
Data set [3] relates to Baf3 EML4-ALK V1^G1202R/L1196M cells. The conditions noted are these: read-out: BaF3 EML4-ALK^G1102R/L1196M, IC50; 3 days incubation, Cell-Titer Glo.
The target in data set [4] is His-ALK^G1202R/L1196M (Homo sapiens, UniProt Q9UM73, G1202R/L1196M). The data set is described as follows: ALK G1202R/L1196M compound mutant kinase inhibitory activity assay (HTRF). The conditions noted are these: read-out: ALK^G1202R/L1196M Enzyme, IC50, ATP 4 µM, enzyme 0.5 nM, 1 hour at 23 °C. Background: In TR-FRET formats the signal depends on donor and acceptor labels being close together.

The subject of data set [5] is Ba/F3 EML4-ALK^G1202R/L1196M mutant cells. The data set is described as follows: In vivo efficacy in ALK mutant cell line xenograft model. The conditions noted are these: PO, 1 mg/kg, BID.
The target of data set [6] is His-ALK^I1171N/D1203N (Homo sapiens, UniProt Q9UM73, D1203N/I1171N). The data set can be described thus: ALK I1171N/D1203N compound mutant kinase inhibitory activity assay (HTRF). The conditions noted are these: read-out: ALK^I1171N/D1203N Enzyme, IC50, ATP 1 µM, enzyme 0.3 nM, 1 hour at 23 °C.
Data set [7] can be described thus: Body weight in the xenograft model study. The conditions noted are these: PO, 1 mg/kg, BID.

Where only a bound is given, the exact number is not on record here.

On to `CCn1nc(/C=C/COC)c2c1-c1cnc(N)c(c1)O[C@H](C)c1cc(F)ccc1-c1nn(C)cc1C2`, for which the IC50 in data set [1] was < 10 nM. Also, in data set [2], the “AUC0-inf” value was determined as 10063 ng·h/mL, the maximum concentration (Cmax) turned out to be 3801 ng/mL, the “T1/2” value was determined as 2.98 h and the “Tmax” value was found to be 0.33 h. In addition, the IC50 in data set [3] is < 10 nM. Also, the IC50 in data set [4] is < 5 nM.
With `CCn1nc(N=S2(=O)CCC2)c2c1-c1cnc(N)c(c1)O[C@H](C)c1cc(F)ccc1-c1nn(C)cc1C2`, in data set [5], the “TGI (%) Day 2” value turned out to be 71.6%, the “TGI (%) Day 4” value is 88.7%, the “TGI (%) Day 7” value was 92.6% and the “TGI (%) Day 11” value stood at 93.1%. Also, the IC50 in data set [1] was < 10 nM. Moreover, the IC50 in data set [6] was < 5 nM. For the same compound, in data set [7], the “Body Weight Change (% of vehicle) Day 2” value was 99.0 % of vehicle, the “Body Weight Change (% of vehicle) Day 4” value is 98.9 % of vehicle, the “Body Weight Change (% of vehicle) Day 7” value was 97.1 % of vehicle and the “Body Weight Change (% of vehicle) Day 11” value is listed as 97.5 % of vehicle. Moreover, in data set [2], the “AUC0-inf” value is 15504 ng·h/mL, the “Cmax” value is listed as 1859 ng/mL, the “T1/2” value is 4.16 h and the “Tmax” value turned out to be 3.67 h. The IC50 in data set [3] is < 10 nM. Besides, the IC50 in data set [4] is < 5 nM.
`CCn1nc(C#Cc2ccccn2)c2c1-c1cnc(N)c(c1)O[C@H](C)c1cc(F)ccc1-c1nn(C)cc1C2`: in data set [5], the “TGI (%) Day 2” value came to 84.9%, the “TGI (%) Day 4” value is listed as 93.0%, the “TGI (%) Day 7” value worked out at 95.1% and the “TGI (%) Day 11” value was 93.4%. In addition, the IC50 in data set [1] is < 10 nM. Also, in data set [6], the IC50 is < 5 nM. In addition, in data set [7], the “Body Weight Change (% of vehicle) Day 2” value is on record as 99.3 % of vehicle, the “Body Weight Change (% of vehicle) Day 4” value was 99.1 % of vehicle, the “Body Weight Change (% of vehicle) Day 7” value is recorded as 92.6 % of vehicle and the “Body Weight Change (% of vehicle) Day 11” value was 91.8 % of vehicle. Further, in data set [2], the “AUC0-inf” value is 31917 ng·h/mL, the highest concentration (Cmax) is recorded as 2753 ng/mL, the “T1/2” value came to 2.89 h and the “Tmax” value was 3.00 h. In addition, in data set [3], the IC50 is < 10 nM. Besides, the IC50 in data set [4] is < 5 nM.
Turning to `CCn1nc(C#Cc2cn(C)nn2)c2c1-c1cnc(N)c(c1)O[C@H](C)c1cc(F)ccc1-c1nn(C)cc1C2`, the IC50 is < 10 nM in data set [1], < 5 nM in data set [6], < 10 nM in data set [3] and < 5 nM in data set [4]. For the same compound, the “AUC0-inf” value in data set [2] was found to be 13245 ng·h/mL. The “Cmax” value in data set [2] was 2012 ng/mL. Further, the “T1/2” value in data set [2] was 3.81 h. In addition, in data set [2], the time to peak (Tmax) worked out at 1.00 h.
Regarding `C#Cc1nn(CC)c2c1Cc1cn(C)nc1-c1ccc(F)cc1[C@@H](C)Oc1cc-2cnc1N`, in data set [5], the “TGI (%) Day 2” value stood at 71.1%, the “TGI (%) Day 4” value is recorded as 78.4%, the “TGI (%) Day 7” value is listed as 84.0% and the “TGI (%) Day 11” value worked out at 92.8%. The IC50 in data set [1] was < 10 nM. Also, the IC50 in data set [6] is < 5 nM. In data set [7], the “Body Weight Change (% of vehicle) Day 2” value is on record as 100.2 % of vehicle, the “Body Weight Change (% of vehicle) Day 4” value is 96.9 % of vehicle, the “Body Weight Change (% of vehicle) Day 7” value was 93.6 % of vehicle and the “Body Weight Change (% of vehicle) Day 11” value is given as 94.8 % of vehicle. In data set [2], the “AUC0-inf” value was 10721 ng·h/mL, the maximum concentration (Cmax) is 1596 ng/mL, the “T1/2” value stood at 3.00 h and the “Tmax” value is 0.50 h. Moreover, the IC50 in data set [3] was < 10 nM. In data set [4], the IC50 was < 5 nM.
As to `CCn1nc(C#Cc2cnc(N)cn2)c2c1-c1cnc(N)c(c1)O[C@H](C)c1cc(F)ccc1-c1nn(C)cc1C2`, the IC50 in data set [1] was < 10 nM. In addition, in data set [2], the “AUC0-inf” value came to 9130 ng·h/mL, the “Cmax” value turned out to be 1140 ng/mL, the “T1/2” value came to 10.0 h and the “Tmax” value came to 2.83 h. For the same compound, the IC50 in data set [3] is < 10 nM. Also, in data set [4], the IC50 was < 5 nM.
On to `CCn1nc(N=S(=O)(CC)CC)c2c1-c1cnc(N)c(c1)O[C@H](C)c1cc(F)ccc1-c1nn(C)cc1C2`, for which, in data set [1], the IC50 is < 10 nM. Further, the IC50 in data set [6] was < 5 nM. Besides, in data set [2], the “AUC0-inf” value stood at 11143 ng·h/mL, the “Cmax” value is 3146 ng/mL, the “T1/2” value amounted to 2.75 h and the “Tmax” value came to 0.33 h. The IC50 in data set [3] is < 10 nM. The IC50 in data set [4] was < 5 nM.
Turning to `CCn1nc(C#CC2CCC(=O)CC2)c2c1-c1cnc(N)c(c1)O[C@H](C)c1cc(F)ccc1-c1nn(C)cc1C2`, the IC50 was < 10 nM in data set [1], < 5 nM in data set [6], < 10 nM in data set [3] and < 5 nM in data set [4].
For “(19R)-3-ethyl-16-fluoro-10,19-dimethyl-5-(prop-1-yn-1-yl)-20-oxa-3,4,10, 11,23-pentaazapentacyclo[19.3.1.0^8,12.0^13,18.0^2,6]pentacosa-1(25),2(6),4,8(9),11,13(18),14,16,21 (22),23-decaen-22-amine”, the IC50 is < 10 nM in data set [1], < 5 nM in data set [6], < 10 nM in data set [3] and < 5 nM in data set [4].
On to `CCn1nc(C#Cc2ccnnc2)c2c1-c1cnc(N)c(c1)O[C@H](C)c1cc(F)ccc1-c1nn(C)cc1C2`, for which the IC50 is < 10 nM in data set [1], < 5 nM in data set [6], < 10 nM in data set [3] and < 5 nM in data set [4].
For the compound `C#Cc1nn(CC)c2c1Cc1cccnc1-c1ccc(F)cc1[C@@H](C)Oc1cc-2cnc1N`, in data set [1], the IC50 is < 10 nM. Moreover, in data set [6], the IC50 is < 5 nM. In data set [2], the “AUC0-inf” value stood at 8619 ng·h/mL, the highest concentration (Cmax) came out at 1425 ng/mL, the “T1/2” value was 3.81 h and the “Tmax” value was 0.833 h. For the same compound, the IC50 in data set [3] was < 10 nM. Moreover, in data set [4], the IC50 is < 5 nM.
For the compound `CCn1nc(C#CCN2CCCC2=O)c2c1-c1cnc(N)c(c1)O[C@H](C)c1cc(F)ccc1-c1nn(C)cc1C2`, the IC50 was < 10 nM in data set [1], < 5 nM in data set [6], < 10 nM in data set [3] and < 5 nM in data set [4].
Turning to `CCn1nc(C#Cc2cnn(C)c2)c2c1-c1cnc(N)c(c1)O[C@H](C)c1cc(F)ccc1-c1nn(C)cc1C2`, the IC50 in data set [1] is < 10 nM; in data set [6], < 5 nM; in data set [3], < 10 nM; in data set [4], < 5 nM.
On to `CCn1nc(C#Cc2cnc(N)nc2)c2c1-c1cnc(N)c(c1)O[C@H](C)c1cc(F)ccc1-c1nn(C)cc1C2`, for which the IC50 is < 10 nM in data set [1], < 5 nM in data set [6], < 10 nM in data set [3] and < 5 nM in data set [4].
In the case of `CCn1nc(C#C[C@@H]2COCCN2)c2c1-c1cnc(N)c(c1)O[C@H](C)c1cc(F)ccc1-c1nn(C)cc1C2`, the IC50 is < 10 nM in data set [1], < 5 nM in data set [6], < 10 nM in data set [3] and < 5 nM in data set [4].
Turning to `CCn1nc(C#Cc2cncn2C(F)F)c2c1-c1cnc(N)c(c1)O[C@H](C)c1cc(F)ccc1-c1nn(C)cc1C2`, the IC50 in data set [1] was < 10 nM; in data set [6], < 5 nM; in data set [3] it was < 10 nM; in data set [4], < 5 nM.
